{"sequences": {"note": "By UniProt entry, the sequences of proteins in these tests, tags left out. Where a name states a change or a piece, a line headed by the entry shows the natural chain unless it says otherwise. Residues count along the entry.", "UniProt O95398, 211-360 limits assumed": "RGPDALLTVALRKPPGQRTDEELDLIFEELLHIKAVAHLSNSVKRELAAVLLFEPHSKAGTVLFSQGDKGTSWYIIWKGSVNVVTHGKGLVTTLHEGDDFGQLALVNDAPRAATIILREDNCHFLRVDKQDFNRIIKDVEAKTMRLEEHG", "UniProt O95398, 191-923 limits assumed, stated change not applied": "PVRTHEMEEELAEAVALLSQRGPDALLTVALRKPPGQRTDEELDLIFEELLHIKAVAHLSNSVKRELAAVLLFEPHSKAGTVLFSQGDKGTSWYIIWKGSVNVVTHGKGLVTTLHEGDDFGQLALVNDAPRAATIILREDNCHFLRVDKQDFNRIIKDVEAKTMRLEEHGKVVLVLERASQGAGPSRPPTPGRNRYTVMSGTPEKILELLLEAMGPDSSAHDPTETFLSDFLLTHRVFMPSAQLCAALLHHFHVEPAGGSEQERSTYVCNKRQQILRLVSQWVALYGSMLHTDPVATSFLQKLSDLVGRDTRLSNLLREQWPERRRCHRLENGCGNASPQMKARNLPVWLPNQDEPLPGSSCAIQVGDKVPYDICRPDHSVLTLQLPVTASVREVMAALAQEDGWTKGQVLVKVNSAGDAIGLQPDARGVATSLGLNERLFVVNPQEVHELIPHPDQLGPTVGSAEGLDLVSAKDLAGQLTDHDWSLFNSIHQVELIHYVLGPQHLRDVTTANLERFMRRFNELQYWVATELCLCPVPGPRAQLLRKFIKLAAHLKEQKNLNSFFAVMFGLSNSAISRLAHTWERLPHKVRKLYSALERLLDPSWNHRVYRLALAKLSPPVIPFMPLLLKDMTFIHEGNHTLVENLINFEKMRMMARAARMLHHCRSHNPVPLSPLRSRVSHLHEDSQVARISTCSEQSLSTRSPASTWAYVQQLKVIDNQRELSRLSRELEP"}, "source": "patent US20230150929A1", "about": "“SELECTIVE NON-CYCLIC NUCLEOTIDE ACTIVATORS FOR THE CAMP SENSOR EPAC1” (The Board of Regents of The University of Texas System, priority 2020, published 2023)", "key": {"[1]": {"target": "EPAC1-CNBD (Homo sapiens, UniProt O95398)", "test": "8-NBD-cAMP competition binding assay, EPAC1-CNBD", "details": "compound 10 µM, EPAC1-CNBD 0.8 µM, 8-NBD-cAMP 62.5 nM; mean ± SEM; lower RFI = stronger binding"}, "[2]": {"target": "EPAC1-ΔDEP (aa. 149-881) (Homo sapiens, UniProt O95398)", "test": "8-NBD-cAMP competition binding assay, EPAC1-ΔDEP", "details": "read-out: EPAC1-ΔDEP IC50; eleven-point dose-response 1-100 µM; mean ± SEM"}}, "note": "pIC50: −log10 of the molar value."}
{"smiles": "Cc1ccc(S(=O)(=O)NC(=O)COc2ccc3ccccc3c2)c(C)c1", "values": [{"measurement": "RFI (%) (relative fluorescence intensity), Table 1", "setting": "[1]", "value": "61 ± 3", "unit": "%"}, {"measurement": "RFI (%) (relative fluorescence intensity), Table 3", "setting": "[1]", "value": "61 ± 3", "unit": "%"}, {"measurement": "RFI (%) (relative fluorescence intensity), Table 4", "setting": "[1]", "value": "61 ± 3", "unit": "%"}, {"measurement": "pIC50", "setting": "[2]", "value": 5.17}]}
